Test results: patent publication US20230035491A1, “METHODS, KITS AND COMPOSITIONS FOR REDUCING CARDIOTOXICITY ASSOCIATED WITH CANCER THERAPIES” (Baruch S. Blumberg Institute, priority 2019, published 2023)

How the values were obtained:
[1] = Chronic maraviroc, cardiac function by echocardiography; type: in vivo, mice; conditions: maraviroc 16 mg/kg twice daily gavage, 9 months, n=3, vs vehicle
Method: Mice (n=3) were treated for 9 months with maraviroc (16 mg/kg, twice daily gavage) or vehicle. At the end of 9 months, measurements of cardiac function were made using echocardiography with the Vevo 770 preclinical high frequency ultrasound system (Visualsonics). M-mode analysis of the resulting images provided indices of cardiac systolic and diastolic function. In FIG. 12a, function indices of myocardial anatomy were assessed including thickness of the left ventricular free wall (LVFW) and posterior wall (LVPW) at the end of cardiac function (systole) and relaxation (diastole). Measurements are of wall thickness in mm. Within FIG. 12b, cardiac function was assessed using echocardiography. Indices include stroke volume (Stroke V) which is the volume expelled from the left ventricular upon each cardiac contraction (μL), ejection fraction (EF) which is the percentage of the left ventricular volume expelled with each cardiac contraction (%), fractional shortening (FS) which is the proportion of diastolic dimension lost in systole (%), and cardiac output (CO) which is the total cardiac output per minute (stroke volume×heart rate)(ml/min). Data represent the vehicle (water with 5% (v/v) DMSO and 1% (v/v) 1N HCL) control (solid border) and maraviroc treated mice (non-solid border).

[2] = tested on: cardiac progenitor iPSCs; assay: Cell death of cardiac precursor iPSCs with saline or DOX and maraviroc, propidium iodide; type: cell-based; conditions: maraviroc alone (0-100 m), 24 hours
From the text: (mean+/−SD, n=3). […] Data represents mean+/−SD (n=3).

[3] = Immunostaining of myocardium after chronic maraviroc (CD31, ARC, Bcl2, Activated Caspase 3); type: in vivo, mice; conditions: maraviroc 16 mg/kg twice daily gavage, 9 months, n=3 per group
Method: After 9 months hearts were excised and fixed overnight in paraformaldehyde. Fixed tissues were embedded in paraffin blocks and sectioned (5 mm) in preparation for immunostaining. After deparaffinization and rehydration, antigen retrieval was performed in Tris buffer (pH 9) on the resulting sections. After blocking sections were incubated with an antibodies to assess vascularity (CD31) and myocardial health (ARC, Bcl2, Activated Caspase 3). Antibody binding was visualized using an HRP-conjugated second antibody and Nova red substrate. Haematoxylin was used for nuclear visualization.

In the case of maraviroc, the “cardiac function (wall thickness, stroke volume, EF, FS, CO)” value [1] is reported as “do not affect murine cardiac function”, the “viability of cardiac progenitor iPSCs” value [2] is reported as “no significant effect” and the “cardiac myocyte health (ARC, Bcl2, Activated Caspase 3)” value [3] is reported as “nor did chronic maraviroc consumption significantly impact cardiac myocyte health”. For the same substance, the “vascularity of the myocardium (CD31)” value [3] was “did not change the vascularity”.
